Data published in PubChem BioAssay AID588579 (National Center for Advancing Translational Sciences (NCATS), 2011).
Where “and” joins values, the source holds several entries; their conditions need not be identical. Equal entries are not always repeated. Only a part is listed here, and it is no random draw. Inconclusive results are not listed. Calls of active or inactive are those of the source. The call rests on the fitted dose curve; in most records, active means well fitted inhibition curve with a large enough effect; inconclusive means small, poorly fitted or top-dose-only effect, or another doubt; inactive means no such curve, though single readings can be large or run the other way.

Sequences of proteins named here, by UniProt entry; tags and fusion partners are left off. A change or cut given only in a name is not applied to a line headed by its entry.
UniProt Q9UBT6: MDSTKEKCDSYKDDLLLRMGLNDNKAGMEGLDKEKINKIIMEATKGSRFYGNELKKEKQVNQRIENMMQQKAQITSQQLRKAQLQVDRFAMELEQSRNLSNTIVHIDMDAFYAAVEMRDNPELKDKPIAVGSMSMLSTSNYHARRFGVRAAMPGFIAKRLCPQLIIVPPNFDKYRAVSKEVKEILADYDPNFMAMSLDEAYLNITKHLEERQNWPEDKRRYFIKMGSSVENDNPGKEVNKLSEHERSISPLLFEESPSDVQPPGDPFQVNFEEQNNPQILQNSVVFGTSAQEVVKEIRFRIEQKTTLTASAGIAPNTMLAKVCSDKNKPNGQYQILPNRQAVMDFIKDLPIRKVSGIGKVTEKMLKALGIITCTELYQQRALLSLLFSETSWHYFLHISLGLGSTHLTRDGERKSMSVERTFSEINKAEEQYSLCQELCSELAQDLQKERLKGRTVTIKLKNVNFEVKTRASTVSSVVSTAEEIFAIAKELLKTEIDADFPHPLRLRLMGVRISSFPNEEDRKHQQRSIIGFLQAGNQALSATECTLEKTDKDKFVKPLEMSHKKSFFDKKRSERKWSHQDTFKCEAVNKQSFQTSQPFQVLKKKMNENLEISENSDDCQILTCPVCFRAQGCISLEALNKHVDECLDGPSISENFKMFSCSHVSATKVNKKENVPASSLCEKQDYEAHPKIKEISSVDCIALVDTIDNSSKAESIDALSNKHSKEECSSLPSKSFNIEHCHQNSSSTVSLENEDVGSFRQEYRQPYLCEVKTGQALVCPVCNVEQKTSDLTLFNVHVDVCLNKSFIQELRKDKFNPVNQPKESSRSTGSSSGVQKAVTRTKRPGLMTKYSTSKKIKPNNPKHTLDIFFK

Biological target: DNA polymerase kappa (Homo sapiens) (UniProt Q9UBT6)
Experiment: qHTS for Inhibitors of Polymerase Kappa
Details: purified Pol kappa, fluorescent DNA synthesis assay, 10 min
Protocol: The processing and repair of DNA interstrand crosslinks (ICL) in eukaryotic cells are extremely complex, potentially involving multiple DNA repair and damage tolerance pathways, including homologous recombination, nucleotide excision repair, translesion synthesis (TLS), and cell cycle checkpoints.
To that end, in a collaboration between the Oregon Health & Science University and the NIH Chemical Genomics Center a 1536-well high-throughput screen was developed. This fluorescent screen was assayed against the NIH Molecular Libraries Small Molecule Repository (MLSMR) to discover inhibitors of Pol Kappa.
NIH Chemical Genomics Center [NCGC]
NIH Molecular Libraries Probe Centers Network [MLPCN]
Assay Submitter (PI): Stephen Lloyd, Oregon Health & Science University
Three microliters of reagents (buffer in column 3 and 4 as negative control and 10 nM Pol kappa in columns 1, 2, and 5-48) were dispensed into a 1536-well black solid-bottom plate. Compounds (23 nL) were transferred via Kalypsys pin tool equipped with 1536-pin array. The plates were then incubated for 15 min at room temperature, and 1 uL substrate (50 nM final concentration) were then added to start the reaction and kinetically read twice at 0 min and 10 min on the Viewlux reader
On the % scale 0 is the no-effect control and ±100 the full control effect.

`CCOC(=O)Nc1ccc([As](=O)(O)O)c(O)c1` was tested, and the activity, negative = inhibition (at 107 µM (top of the series)) was inactive: 9.75%.

With `CC1CCNP(=O)(N(CCCl)CCCl)O1` (centres undefined) the activity, negative = inhibition (at 107 µM (top of the series)) was inactive: -3.55%.

With `Cc1cc(SC(NC(=O)c2ccccc2)C(Cl)(Cl)Cl)nc(C(C)C)n1` (centres undefined) the activity, negative = inhibition (at 107 µM (top of the series)) was inactive: -17.7%.

In the case of `CCCCOc1ccc(C(=O)NCC2(N3CCCCC3)CCCCC2)cc1OC`, the activity, negative = inhibition (at 107 µM (top of the series)) is reported as inactive: -24.6%.

`CCOC(=O)Nc1cccc([As](=O)(O)O)c1` was tested, and the activity, negative = inhibition (at 107 µM (top of the series)) was inactive: -7.74%.

In the case of `Cc1cc(SC(NC=O)C(Cl)(Cl)Cl)ncn1` (centres undefined), the activity, negative = inhibition (at 107 µM (top of the series)) is reported as inactive: -14.4%.

In the case of `O=P(Nc1ccccn1)(c1cccc2ccccc12)c1cccc2ccccc12`, the activity, negative = inhibition (at 107 µM (top of the series)) is reported as inactive: -16.2%.

In the case of `O=[N+]([O-])c1ccc(Nc2ccc(Oc3ccc([N+](=O)[O-])cc3[N+](=O)[O-])cc2)c([N+](=O)[O-])c1`, the activity, negative = inhibition (at 107 µM (top of the series)) is reported as inactive: -10.8%.

In the case of `COP1(=S)c2c(C)nn(CCC#N)c2N=C(c2ccc(F)cc2)N1C` (centres undefined), the activity, negative = inhibition (at 60.1 µM (top of the series)) is reported as inactive: -0.182%.

For `O=C(Nc1ccncc1[N+](=O)[O-])c1ccc([N+](=O)[O-])cc1[N+](=O)[O-]`, the activity, negative = inhibition (at 107 µM (top of the series)) was inactive: -5.1%.

For `O=C(COc1ccccc1)OC1CN2CCC1CC2` (centres undefined), the activity, negative = inhibition (at 107 µM (top of the series)) was inactive: -3.68%.

With `O=C(OC1CN2CCC1CC2)c1cccc([N+](=O)[O-])c1` (centres undefined) the activity, negative = inhibition (at 107 µM (top of the series)) was inactive: 1.89%.

In the case of `CCOC(=O)c1ccc(NC(=O)C(C)(CCl)SC)cc1` (centres undefined), the activity, negative = inhibition (at 107 µM (top of the series)) is reported as inactive: -7.3%.

`CCC(C)N(CC(C)C)C(=S)SC(NC(C)=O)C(Cl)(Cl)Cl` (centres undefined) was tested, and the activity, negative = inhibition (at 107 µM (top of the series)) was inactive: -0.407%.

In the case of `CCOP(=O)(Nc1cccc2cccnc12)OCC`, the activity, negative = inhibition (at 107 µM (top of the series)) is reported as inactive: -7.55%.

With `Cc1c2c(nc3ccccc13)SC(C(Cl)Cl)C2` (centres undefined) the activity, negative = inhibition (at 107 µM (top of the series)) was inactive: -20.3%.

For `Cc1cc(=O)[nH]c(N[N+](=O)[O-])n1`, the activity, negative = inhibition (at 107 µM (top of the series)) was inactive: -12.3%.

In the case of `O=C(OC1CN2CCC1CC2)C12CC3CC(CC(C3)C1)C2` (centres undefined), the activity, negative = inhibition (at 107 µM (top of the series)) is reported as inactive: -0.63%.

With `O=P1(N(CCCl)CCCl)OCCCN1CCCl` (centres undefined) the activity, negative = inhibition (at 107 µM (top of the series)) was inactive: -23.8%.

In the case of `O=P1(N(CCCl)CCCl)Nc2ccccc2N1`, the activity, negative = inhibition (at 107 µM (top of the series)) is reported as inactive: -12.1%.

With `COc1cc(I)ccc1[As](=O)(O)O` the activity, negative = inhibition (at 107 µM (top of the series)) was inactive: -17.8%.

In the case of `COc1ccc2nc(NP(=O)(c3ccccc3)c3ccccc3)sc2c1`, the activity, negative = inhibition (at 107 µM (top of the series)) is reported as inactive: -0.861%.

For `O=[N+]([O-])c1cc(Oc2ccc([N+](=O)[O-])cc2C(F)(F)F)cc([N+](=O)[O-])c1`, the activity, negative = inhibition (at 107 µM (top of the series)) was inactive: -2.46%.

`COc1ccc(N/C(=N/P(=O)(N2CCOCC2)N2CCOCC2)N2CCOCC2)cc1` was tested, and the activity, negative = inhibition (at 107 µM (top of the series)) was inactive: -1.4%.

`COc1cc(C(=O)NCC2(N3CCOCC3)CCCCC2)ccc1OCC(C)C` was tested, and the activity, negative = inhibition (at 107 µM (top of the series)) was inactive: -20.5%.

`C[As](=O)(O)c1cccc(C(=O)O)c1` was tested, and the activity, negative = inhibition (at 107 µM (top of the series)) was inactive: -18.5%.

`O=[As](O)(c1ccc(O)cc1)c1ccccc1O` was tested, and the activity, negative = inhibition (at 107 µM (top of the series)) was inactive: -3.01%.

In the case of `Cc1ccc(OP(=O)(Nc2ccc([N+](=O)[O-])cn2)Oc2ccc(C)cc2)cc1`, the activity, negative = inhibition (at 107 µM (top of the series)) is reported as inactive: 3.42%.

With `Cc1ccc2nc3c(c(C)c2c1)CC(C(Cl)Cl)S3` (centres undefined) the activity, negative = inhibition (at 107 µM (top of the series)) was inactive: -14.1%.

For `O=Cc1ccc(NCCCl)cc1`, the activity, negative = inhibition (at 107 µM (top of the series)) was inactive: -4.23%.

For `ClCCSc1nnc(-c2cccnc2)o1`, the activity, negative = inhibition (at 107 µM (top of the series)) was inactive: 0.562%.

`CC(C)c1ccc(OP(=O)(Nc2ccccn2)Oc2ccccc2F)cc1` (centres undefined) was tested, and the activity, negative = inhibition (at 107 µM (top of the series)) was inactive: 2.47%.

In the case of `COC(=O)C1(C)COP(=O)(N2CCCCCC2)OC1` (centres undefined), the activity, negative = inhibition (at 107 µM (top of the series)) is reported as inactive: -6.77%.

With `O=[N+]([O-])c1cc([N+](=O)[O-])c(-c2ccn[nH]2)s1` the activity, negative = inhibition (at 107 µM (top of the series)) was inactive: -50.7%.

For `O=C(OC1CN2CCC1CC2)c1cccc2[nH]cnc12` (centres undefined), the activity, negative = inhibition (at 107 µM (top of the series)) was inactive: 2.35%.

In the case of `CCN(CC)C(=S)SC(NC=O)C(Cl)(Cl)Cl` (centres undefined), the activity, negative = inhibition (at 107 µM (top of the series)) is reported as inactive: -3.21%.

In the case of `CC(C)NC(=O)NP(=O)(Oc1ccccc1)Oc1ccccc1`, the activity, negative = inhibition (at 107 µM (top of the series)) is reported as inactive: -7.86%.

`O=P(Nc1nc2ccc(Cl)cc2s1)(c1ccccc1)c1ccccc1` was tested, and the activity, negative = inhibition (at 107 µM (top of the series)) was inactive: -2.9%.

In the case of `CCCC1OP(N)(=O)OCC1CC` (centres undefined), the activity, negative = inhibition (at 107 µM (top of the series)) is reported as inactive: 3.27%.

With `O=C(O)c1ccccc1[As](=O)(O)O` the activity, negative = inhibition (at 107 µM (top of the series)) was inactive: -6.42%.

`CC(=O)Nc1ccc([As](=O)(O)O)cc1` was tested, and the activity, negative = inhibition (at 107 µM (top of the series)) was inactive: 3.37%.

For `CN(C(=O)Cc1ccc(Cl)c(Cl)c1)[C@H]1CCCC[C@@H]1N1CCCC1`, the activity, negative = inhibition (at 19.4 µM (top of the series)) was inactive: 0.113% [middle of 7 runs], the activity, negative = inhibition (at 60.1 µM (top of the series)) was inactive: -11.4% and inactive: 7.08% and inactive: 2.68% and the activity, negative = inhibition (at 107 µM (top of the series)) was inactive: -7.95%.

In the case of `Cc1ccc(NP(=O)(Oc2ccccc2F)Oc2ccccc2F)nc1`, the activity, negative = inhibition (at 107 µM (top of the series)) is reported as inactive: -2.8%.

For `CCOP(=O)(Nc1ccccc1)OCC`, the activity, negative = inhibition (at 107 µM (top of the series)) was inactive: 6.6%.

With `Cc1cc(SC(NC(=O)c2ccc(F)cc2)C(Cl)(Cl)Cl)ncn1` (centres undefined) the activity, negative = inhibition (at 107 µM (top of the series)) was inactive: -8.21%.

In the case of `Nc1cccc2ccc([As](=O)(O)O)cc12`, the activity, negative = inhibition (at 107 µM (top of the series)) is reported as inactive: 10.5%.

`Cc1ccc(N/C(=N/P(=O)(N2CCOCC2)N2CCOCC2)N2CCOCC2)cc1` was tested, and the activity, negative = inhibition (at 107 µM (top of the series)) was inactive: 2.94%.

For `CN(C(=O)Cc1ccc(Cl)c(Cl)c1)[C@H]1CCCC[C@H]1N1CCCC1`, the activity, negative = inhibition (at 107 µM (top of the series)) was inactive: -27.5%.

In the case of `O=[N+]([O-])c1cc2c(cc1[N+](=O)[O-])OCO2`, the activity, negative = inhibition (at 107 µM (top of the series)) is reported as inactive: -5.5%.

`NC(=O)c1cc([N+](=O)[O-])cc([N+](=O)[O-])c1N` was tested, and the activity, negative = inhibition (at 107 µM (top of the series)) was inactive: 0.716%.

For `Clc1ccc(Cl)c(NC2=NCC(CBr)S2)c1` (centres undefined), the activity, negative = inhibition (at 107 µM (top of the series)) was inactive: 1.35%.

In the case of `CN1CCCC(OC(=O)C(c2ccccc2)c2ccccc2)C1` (centres undefined), the activity, negative = inhibition (at 107 µM (top of the series)) is reported as inactive: 6.73%.
